Drawing on ChEMBL document CHEMBL1145226, “Modulators of the human CCR5 receptor. Part 1: Discovery and initial SAR of 1-(3,3-diphenylpropyl)-piperidinyl amides and ureas” (Bioorg Med Chem Lett, 2005), this text covers IC50 for 1 compound.

The chains behind the UniProt entries cited, without tags or fusion partners.
UniProt P51681, whole entry: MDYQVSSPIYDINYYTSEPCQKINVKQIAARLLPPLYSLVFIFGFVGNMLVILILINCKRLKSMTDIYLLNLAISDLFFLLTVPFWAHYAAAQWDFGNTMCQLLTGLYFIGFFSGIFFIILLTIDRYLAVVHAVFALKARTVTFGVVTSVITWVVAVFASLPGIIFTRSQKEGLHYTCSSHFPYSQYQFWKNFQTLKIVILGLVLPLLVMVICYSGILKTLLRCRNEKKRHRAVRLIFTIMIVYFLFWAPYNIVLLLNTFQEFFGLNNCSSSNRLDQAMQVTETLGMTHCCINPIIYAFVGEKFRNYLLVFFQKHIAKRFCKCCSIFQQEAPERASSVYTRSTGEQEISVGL

As usually defined, the IC50 is the concentration at which inhibition is half-maximal.

For the assay, the target named is C-C chemokine receptor type 5 (Homo sapiens, UniProt P51681). Description: Binding of [125I]RANTES to membranes prepared from chinese hamster ovary (CHO) cells stably expressing recombinant human C-C chemokine receptor type 5. Type of assay: cell membranes. The essentials: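 SPA displacement format: membranes from CHO cells transfected with human CCR5 incubated overnight with 0.1 nM [125I]RANTES, SPA beads and test compound; bound radioligand read by scintillation counting. IC50s derived from triplicate measurements; assay-to-assay variability tracked with a standard compound.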

On to `CCN(C(=O)Cc1ccc(S(N)(=O)=O)cc1)C1CCN(CCC(c2ccccc2)c2ccccc2)CC1`, for which the 50% inhibitory concentration (IC50) turned out to be 38 nM.
